Results taken from patent publication US20140235626A1, “PYRIDINE DERIVATIVES AND A PHARMACEUTICAL COMPOSITION FOR INHIBITING BACE1 CONTAINING THEM” (SHIONOGI & CO., LTD., priority 2011, published 2014).

Amino acid sequences for entries named in this document (tags omitted).
UniProt P08684, whole entry: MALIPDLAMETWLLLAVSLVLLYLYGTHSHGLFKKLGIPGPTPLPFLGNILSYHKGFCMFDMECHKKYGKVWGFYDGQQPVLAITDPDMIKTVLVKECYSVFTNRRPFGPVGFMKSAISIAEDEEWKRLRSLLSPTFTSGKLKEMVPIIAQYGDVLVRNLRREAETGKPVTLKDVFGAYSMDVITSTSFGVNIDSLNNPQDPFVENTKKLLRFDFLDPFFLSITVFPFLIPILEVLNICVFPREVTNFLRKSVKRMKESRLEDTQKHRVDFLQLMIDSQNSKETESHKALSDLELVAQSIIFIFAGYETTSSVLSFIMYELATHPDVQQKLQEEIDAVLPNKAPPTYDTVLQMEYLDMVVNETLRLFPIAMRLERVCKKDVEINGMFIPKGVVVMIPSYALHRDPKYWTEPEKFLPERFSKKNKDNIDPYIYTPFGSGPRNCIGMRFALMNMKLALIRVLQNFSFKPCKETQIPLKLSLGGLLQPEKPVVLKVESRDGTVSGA
UniProt P05177, whole entry: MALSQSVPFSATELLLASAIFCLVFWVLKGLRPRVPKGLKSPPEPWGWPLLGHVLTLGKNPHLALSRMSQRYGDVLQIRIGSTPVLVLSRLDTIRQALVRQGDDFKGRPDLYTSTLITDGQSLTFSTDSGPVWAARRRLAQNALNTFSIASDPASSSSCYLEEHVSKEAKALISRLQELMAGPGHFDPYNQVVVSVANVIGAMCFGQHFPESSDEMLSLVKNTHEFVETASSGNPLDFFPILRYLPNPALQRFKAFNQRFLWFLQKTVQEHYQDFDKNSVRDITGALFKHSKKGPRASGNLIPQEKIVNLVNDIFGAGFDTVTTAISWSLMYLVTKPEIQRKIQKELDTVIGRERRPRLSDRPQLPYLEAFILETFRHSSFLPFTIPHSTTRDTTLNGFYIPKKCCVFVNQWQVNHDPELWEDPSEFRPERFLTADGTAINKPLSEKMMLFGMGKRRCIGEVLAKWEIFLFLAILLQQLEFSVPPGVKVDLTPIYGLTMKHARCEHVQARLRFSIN
UniProt P33261, whole entry: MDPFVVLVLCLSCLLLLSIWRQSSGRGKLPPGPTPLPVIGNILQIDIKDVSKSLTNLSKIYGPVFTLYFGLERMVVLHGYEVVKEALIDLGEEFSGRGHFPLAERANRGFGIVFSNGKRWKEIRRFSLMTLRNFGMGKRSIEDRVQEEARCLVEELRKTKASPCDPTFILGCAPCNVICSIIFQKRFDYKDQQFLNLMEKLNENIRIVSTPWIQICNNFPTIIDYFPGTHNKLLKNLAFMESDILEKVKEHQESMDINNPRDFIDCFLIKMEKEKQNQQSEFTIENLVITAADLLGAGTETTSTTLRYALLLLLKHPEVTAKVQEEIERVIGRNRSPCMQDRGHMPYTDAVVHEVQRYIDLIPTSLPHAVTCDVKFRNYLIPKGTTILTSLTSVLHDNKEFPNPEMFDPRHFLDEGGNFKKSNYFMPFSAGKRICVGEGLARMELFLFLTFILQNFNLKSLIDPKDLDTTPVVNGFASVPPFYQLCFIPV
UniProt P10635, whole entry: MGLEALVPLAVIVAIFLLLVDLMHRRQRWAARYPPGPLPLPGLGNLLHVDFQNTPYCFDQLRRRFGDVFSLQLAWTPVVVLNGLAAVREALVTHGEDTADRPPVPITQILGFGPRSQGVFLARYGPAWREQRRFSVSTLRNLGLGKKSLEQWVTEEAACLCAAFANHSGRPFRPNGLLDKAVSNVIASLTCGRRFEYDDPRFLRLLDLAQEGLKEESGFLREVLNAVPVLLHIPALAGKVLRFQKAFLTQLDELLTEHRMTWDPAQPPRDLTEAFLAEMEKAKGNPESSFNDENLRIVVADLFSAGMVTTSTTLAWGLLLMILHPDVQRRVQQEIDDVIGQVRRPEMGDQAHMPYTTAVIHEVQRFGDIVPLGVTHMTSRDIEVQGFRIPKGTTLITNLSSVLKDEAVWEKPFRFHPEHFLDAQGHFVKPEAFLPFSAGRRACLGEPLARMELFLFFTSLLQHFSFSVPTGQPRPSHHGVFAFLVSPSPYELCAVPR
UniProt P11712, whole entry: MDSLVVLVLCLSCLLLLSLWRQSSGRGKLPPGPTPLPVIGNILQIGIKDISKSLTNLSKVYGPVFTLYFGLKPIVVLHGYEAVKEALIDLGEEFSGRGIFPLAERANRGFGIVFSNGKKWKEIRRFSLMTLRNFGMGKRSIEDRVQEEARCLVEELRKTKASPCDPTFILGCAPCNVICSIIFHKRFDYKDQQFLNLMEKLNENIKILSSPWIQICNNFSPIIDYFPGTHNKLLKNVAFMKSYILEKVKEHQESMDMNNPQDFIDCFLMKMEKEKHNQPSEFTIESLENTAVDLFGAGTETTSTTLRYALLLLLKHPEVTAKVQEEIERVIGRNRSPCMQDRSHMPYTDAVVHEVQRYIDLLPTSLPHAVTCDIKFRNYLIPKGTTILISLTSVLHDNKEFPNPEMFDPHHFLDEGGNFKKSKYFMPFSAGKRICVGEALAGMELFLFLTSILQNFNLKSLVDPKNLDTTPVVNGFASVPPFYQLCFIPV

How the values were obtained:
CYP3A4 = CYP3A4 (Homo sapiens, UniProt P08684); assay: CYP inhibition test (terfenedine hydroxylation); settings: read-out: IC50 CYP3A4; pooled human liver microsomes, 1 μmol/L terfenedine, 15 minutes, 37° C.; tested form: tartrate
From the text: (§1) The CYP inhibition test is a test to assess the inhibitory effect of a compound of the present invention towards typical substrate metabolism reactions on CYP enzymes in human liver microsomes. The marker reactions on human main five CYP enzymes (CYP1A2, 2C9, 2C19, 2D6, and 3A4) were used as follows; 7-ethoxyresorufin O-deethylation (CYP1A2), tolbutamide methyl-hydroxylation (CYP2C9), mephenyloin 4′-hydroxylation (CYP2C19), dextromethorphan O-demethylation (CYP2D6), and terfenedine hydroxylation (CYP3A4). The commercially available pooled human liver microsomes were used as an enzyme resource. […]
(§2) Five kinds of substrates, human liver microsomes, and a compound solution of the present invention in 50 mmol/L Hepes buffer were added to a 96-well plate at the composition as described above as a reaction solution. […] After the centrifugation at 3000 rpm for 15 minutes, resorufin (CYP1A2 metabolite) in the supernatant was quantified by a fluorescent plate reader, and hydroxytolbutamide (CYP2C9 metabolite), 4′-hydroxymephenyloin (CYP2C19 metabolite), dextrorphan (CYP2D6 metabolite), and terfenadine alcohol metabolite (CYP3A4 metabolite) in the supernatant were quantified by LC/MS/MS. […]

CYP1A2 = CYP1A2 (Homo sapiens, UniProt P05177); assay: CYP inhibition test (7-ethoxyresorufin O-deethylation); settings: read-out: IC50 CYP1A2; pooled human liver microsomes, 0.5 μmol/L ethoxyresorufin, 15 minutes, 37° C.; tested form: tartrate
From the text: as §1, §2

CYP2C19 = CYP2C19 (Homo sapiens, UniProt P33261); assay: CYP inhibition test (mephenyloin 4'-hydroxylation); settings: read-out: IC50 CYP2C19; pooled human liver microsomes, 50 μmol/L S-mephenyloin, 15 minutes, 37° C.; tested form: tartrate
From the text: as §1, §2

CYP2D6 = CYP2D6 (Homo sapiens, UniProt P10635); assay: CYP inhibition test (dextromethorphan O-demethylation); settings: read-out: IC50 CYP2D6; pooled human liver microsomes, 5 μmol/L dextromethorphan, 15 minutes, 37° C.; tested form: tartrate
From the text: as §1, §2

CYP2C9 = CYP2C9 (Homo sapiens, UniProt P11712); assay: CYP inhibition test (tolbutamide methyl-hydroxylation); settings: read-out: IC50 CYP2C9; pooled human liver microsomes, 100 μmol/L tolbutamide, 15 minutes, 37° C.; tested form: tartrate
From the text: as §1, §2

Measured: IC50

C[C@@]1(c2cc(NC(=O)c3ccc(C#N)cn3)ccn2)C=CSC(N)=N1.O=C(O)C(O)C(O)C(=O)O [Compound I-10]
> 20 µM: all assays above
